Columns and labels:
[1] = system: hCMEC/D3 cells as TfR expressing BBB-derived cell line; assay: FACS analysis of simultaneous cell surface and payload binding; format: cell-based, human; details: Dig-Cy5 as fluorescent payload
Excerpt: To enable blood brain barrier-shuttle functionality of the bispecific antibodies, they must simultaneously bind to the blood brain barrier receptor on endothelial cells of the blood brain barrier, and to the haptenylated payloads to be shuttled. To evaluate this functionality of the hapten-binding bispecific antibodies as reported herein, simultaneous cell surface and payload binding was addressed by FACS analyses. For these analyses, cell binding of the blood brain barrier-shuttle module (=bispecific antibody) was detected by phytoerythrin-labeled IgG recognizing secondary antibodies. Simultaneous payload binding was detected by application of a haptenylated fluorescent payload (digoxigenylated Cy5; DIG-Cy5 (see above)). The results of the FACS analysis, using hCMEC/D3 cells as TfR expressing BBB-derived cell line and Dig-Cy5 as fluorescent payload are shown in FIG. 49: both transferrin receptor binding bispecific antibodies bind to hCMEC/D3 as shown by the anti-IgG-PE associated signals. Similarly, both bispecific antibodies also and simultaneously bind Dig-Cy5 as shown by cell-associated Cy5 attributable signals.

[2] = system: brain endothelial cells (hCMEC/D3); assay: Transwell assay of cell binding, transcytosis and release of shuttle modules (IgG ELISA); format: cell-based, human; details: incubated apically 1 h at 37° C., antibody quantified by IgG ELISA over time
Excerpt: We used brain endothelial cells (hCMEC/D3) to investigate cell binding and transcytosis of the shuttle modules as reported herein. Previous studies (Crepin et al., 2010; Lesley et al., 1989, WO 2012/075037, WO 2014/033074) reported that valency and affinity of TfR binding antibodies influence efficacy of binding to, transcytosis though, and release from endothelial cells of the blood brain barrier. To investigate cell binding and transcytosis in hCMEC/D3, hCMEC/D3 cells cultured on filter inserts were incubated apically with the bispecific antibody or parent antibody (without hapten-binding scFvs as controls) for 1 h at 37° C. Cell monolayers were washed at RT in serum-free medium apically (400 μl) and basolaterally (1600 μl) three times for 3-5 min. each. All wash volumes were collected to monitor efficiency of removal of the unbound ligand or antibody. Pre-warmed medium was added to the apical chamber and the filters transferred to a fresh 12 well plate (blocked overnight with PBS containing 1% BSA) containing 1600 μl pre-warmed medium. At this point, cells on some of the filters were lysed in 500 μl RIPA buffer (Sigma, Munich, Germany, # R0278) in order to determine specific uptakes. […] The content of antibody in the samples was quantified using a highly sensitive IgG ELISA.

B1: CD33-Dig: control bispecific antibody recognizing an antigen not present in detectable amounts on hCMEC/D3 (antibody)
heavy: EVQLVQSGAEVKKPGSSVKVSCKASGYTITDSNIHWVRQAPGQSLEWIGYIYPYNGGTDYNQKFKNRATLTVDNPTNTAYMELSSLRSEDTAFYYCVNGNPWLAYWGQGTLVTVSSASTKGPSVFPLAPSSKSTSGGTAALGCLVKDYFPEPVTVSWNSGALTSGVHTFPAVLQSSGLYSLSSVVTVPSSSLGTQTYICNVNHKPSNTKVDKKV[skipping human IgG1 Fc]GGGGSGGGGSQVQLVESGGGLVKPGGSLRLSCAASGFTFSDYAMSWIRQAPGKCLEWVSSINIGATYIYYADSVKGRFTISRDNAKNSLYLQMNSLRAEDTAVYYCARPGSPYEYDKAYYSMAYWGQGTTVTVSSGGGGSGGGGSGGGGSDIQMTQSPSSLSASVGDRVTITCRASQDIKNYLNWYQQKPGKAPKLLIYYSSTLLSGVPSRFSGSGSGTDFTLTISSLQPEDFATYYCQQSITLPPTFGCGTKVEIK
light: DIQLTQSPSTLSASVGDRVTITCRASESLDNYGIRFLTWFQQKPGKAPKLLMYAASNQGSGVPSRFSGSGSGTEFTLTISSLQPDDFATYYCQQTKEVPWSFGQGGTKVEVKEIKRTVAAPSVFIFPPSDEQLKSGTASVVCLLNNFYPREAKVQWKVDNALQSGNSQESVTEQDSKDSTYSLSSTLTLSKADYEKHKVYACEVTHQGLSSPVTKSFNRGEC
cell binding (anti-IgG-PE signals) and simultaneous Dig-Cy5 binding (cell-associated Cy5 signals) [1]: not generate relevant signals with anti-IgG antibody nor with Dig-Cy5 | binding to cells and release to apical or basolateral compartments [2]: do not bind to these cells and are therefore also not released over time into apical or basolateral compartments

From patent US10806795B2, “Bispecific anti-hapten/anti-blood brain barrier receptor antibodies, complexes thereof and their use as blood brain barrier shuttles” (Hoffmann-La Roche Inc., priority 2014, dated 2020)
